The test system of one data set is trypsin. The following applies: pH 8.
Data set [1] has as its target T1, human NET expressed in Cos-7 cells (Homo sapiens, UniProt P23975).
T1 construct: expressed in transfected cells; host or cells: COS-7 cells, transient transfection
The data set is described as follows: biochemical. Format: binding.

Sequences of proteins named here, by UniProt entry; tags and fusion partners are left off.
UniProt P23975, whole entry: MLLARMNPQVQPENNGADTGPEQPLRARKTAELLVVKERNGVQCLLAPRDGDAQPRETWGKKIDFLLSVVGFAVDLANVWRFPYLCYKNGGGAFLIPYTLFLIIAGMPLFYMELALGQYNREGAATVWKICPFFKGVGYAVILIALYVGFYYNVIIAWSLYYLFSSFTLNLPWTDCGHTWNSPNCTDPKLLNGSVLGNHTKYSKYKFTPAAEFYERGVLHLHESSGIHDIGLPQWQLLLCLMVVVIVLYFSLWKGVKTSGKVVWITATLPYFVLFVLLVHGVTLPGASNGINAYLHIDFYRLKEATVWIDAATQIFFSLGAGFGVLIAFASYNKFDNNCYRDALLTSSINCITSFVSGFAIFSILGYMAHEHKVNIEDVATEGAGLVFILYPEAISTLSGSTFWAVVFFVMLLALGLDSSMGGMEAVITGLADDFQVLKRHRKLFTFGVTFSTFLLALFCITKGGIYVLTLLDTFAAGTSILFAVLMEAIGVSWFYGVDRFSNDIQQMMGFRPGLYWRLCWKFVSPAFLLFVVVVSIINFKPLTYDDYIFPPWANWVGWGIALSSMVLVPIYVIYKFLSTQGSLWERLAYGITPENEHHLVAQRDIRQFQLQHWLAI

The source of these data is patent US20050256301A1 (The University of Queensland, priority 1998, published 2005).

Consider `CC(C)C[C@@H]1NC(=O)[C@H](CCCCN)NC(=O)[C@H](Cc2ccc(O)cc2)NC(=O)CNC(=O)[C@@H]2CSSC[C@H](NC1=O)C(=O)N[C@@H](Cc1c[nH]cn1)C(=O)N1C[C@H](O)C[C@H]1C(=O)N[C@H]1CSSC[C@H](NC(=O)[C@H](C(C)C)NC(=O)CNC(=O)[C@H](CC(N)=O)NC(=O)CNC(=O)[C@H](C)NC1=O)C(=O)N2` [cMrIA-AG, Asn Gly Val Cys Cys Gly Tyr Lys Leu Cys His Hyp Cys Ala Gly], for which, in the data set with trypsin, the “resistance to cleavage by trypsin” value is given as “significantly resistant to cleavage by trypsin”. In addition, the EC50 (usually the concentration giving half of the maximal effect) in data set [1] (EC50 (Table 4)) came to 6.46 ± 1.17 µM; in data set [1] (EC50 (text of Example 10)), 0.99 µM.

In turn, `CC(C)C[C@@H]1NC(=O)[C@H](CCCCN)NC(=O)[C@H](Cc2ccc(O)cc2)NC(=O)CNC(=O)[C@@H]2C[Se][Se]C[C@H](NC1=O)C(=O)N[C@@H](Cc1c[nH]cn1)C(=O)N1C[C@H](O)C[C@H]1C(=O)N[C@H]1CSSC[C@H](NC(=O)[C@H](C(C)C)NC(=O)CNC(=O)[C@H](CC(N)=O)NC(=O)CNC(=O)[C@H](C)NC1=O)C(=O)N2` [[Sec5,10]cMrIA-AG, Asn Gly Val Cys Sec Gly Tyr Lys Leu Sec His Hyp Cys Ala Gly] registered an EC50 in data set [1] (EC50 (Table 5)) of 2.14 ± 0.88 µM.
